Measured values taken from patent publication US10869850B2, “Nitrated-fatty acids modulation of type II diabetes” (University of Pittsburgh—Of the Commonwealth System of …, priority 2007, dated 2020).

Protein sequences, listed by entry. Tags and fused reporters are not part of them.
UniProt P37231, whole entry, species assumed: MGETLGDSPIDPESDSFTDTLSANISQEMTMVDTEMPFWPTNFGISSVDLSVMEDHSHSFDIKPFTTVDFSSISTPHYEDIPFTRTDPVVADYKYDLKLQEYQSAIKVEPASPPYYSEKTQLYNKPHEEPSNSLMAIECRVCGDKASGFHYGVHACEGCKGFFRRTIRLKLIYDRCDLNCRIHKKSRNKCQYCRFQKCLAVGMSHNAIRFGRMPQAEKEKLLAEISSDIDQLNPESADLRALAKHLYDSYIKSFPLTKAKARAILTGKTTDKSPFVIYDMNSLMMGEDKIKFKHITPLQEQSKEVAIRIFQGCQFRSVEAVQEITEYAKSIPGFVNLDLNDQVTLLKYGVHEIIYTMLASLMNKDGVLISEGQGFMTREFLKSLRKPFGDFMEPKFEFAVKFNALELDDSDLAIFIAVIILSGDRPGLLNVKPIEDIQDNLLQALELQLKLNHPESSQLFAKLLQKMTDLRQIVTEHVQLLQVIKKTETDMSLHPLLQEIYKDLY

Molecular target: PPAR-γ (Homo sapiens, UniProt P37231)
Test: PPAR-γ agonist potency
Details: relative to nitro linoleic acid

Substance: 9- or 10-nitro octadecenoic acid [nitro oleic acid]
- potency as an agonist of PPAR-γ: more potent as an agonist of PPAR-γ, relative to nitro linoleic acid
